Measurements reported in EP4834897A1, “COMPOUNDS WITH TWO AZAHETEROCYCLES SUBSTITUTED ISOINDOLINONE SKELETON AND USES THEREOF” (dated 2026).

Protein sequences, listed by entry. Tags and fused reporters are not part of them.
UniProt Q96SW2, whole entry: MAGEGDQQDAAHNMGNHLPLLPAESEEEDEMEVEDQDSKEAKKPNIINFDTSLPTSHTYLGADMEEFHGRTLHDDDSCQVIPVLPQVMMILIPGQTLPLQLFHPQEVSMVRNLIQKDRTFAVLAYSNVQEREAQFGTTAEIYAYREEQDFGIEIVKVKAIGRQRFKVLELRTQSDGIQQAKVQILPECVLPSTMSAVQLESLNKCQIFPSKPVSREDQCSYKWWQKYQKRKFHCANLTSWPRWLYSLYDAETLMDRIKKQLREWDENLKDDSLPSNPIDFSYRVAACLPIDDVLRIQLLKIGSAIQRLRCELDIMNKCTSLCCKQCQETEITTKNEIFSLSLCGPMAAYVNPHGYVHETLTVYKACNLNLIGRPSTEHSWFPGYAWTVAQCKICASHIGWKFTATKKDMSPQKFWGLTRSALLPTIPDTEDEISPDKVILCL
UniProt P48729, whole entry: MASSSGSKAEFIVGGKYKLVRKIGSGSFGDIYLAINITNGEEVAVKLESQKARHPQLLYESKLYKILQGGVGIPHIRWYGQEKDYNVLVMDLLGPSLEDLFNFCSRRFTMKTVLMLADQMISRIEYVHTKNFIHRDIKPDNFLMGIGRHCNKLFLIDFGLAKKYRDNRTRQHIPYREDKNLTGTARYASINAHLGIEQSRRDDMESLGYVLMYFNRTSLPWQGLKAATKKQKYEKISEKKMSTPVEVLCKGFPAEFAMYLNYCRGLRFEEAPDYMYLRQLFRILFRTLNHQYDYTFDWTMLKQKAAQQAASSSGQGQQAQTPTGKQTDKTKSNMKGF
UniProt Q13422, whole entry: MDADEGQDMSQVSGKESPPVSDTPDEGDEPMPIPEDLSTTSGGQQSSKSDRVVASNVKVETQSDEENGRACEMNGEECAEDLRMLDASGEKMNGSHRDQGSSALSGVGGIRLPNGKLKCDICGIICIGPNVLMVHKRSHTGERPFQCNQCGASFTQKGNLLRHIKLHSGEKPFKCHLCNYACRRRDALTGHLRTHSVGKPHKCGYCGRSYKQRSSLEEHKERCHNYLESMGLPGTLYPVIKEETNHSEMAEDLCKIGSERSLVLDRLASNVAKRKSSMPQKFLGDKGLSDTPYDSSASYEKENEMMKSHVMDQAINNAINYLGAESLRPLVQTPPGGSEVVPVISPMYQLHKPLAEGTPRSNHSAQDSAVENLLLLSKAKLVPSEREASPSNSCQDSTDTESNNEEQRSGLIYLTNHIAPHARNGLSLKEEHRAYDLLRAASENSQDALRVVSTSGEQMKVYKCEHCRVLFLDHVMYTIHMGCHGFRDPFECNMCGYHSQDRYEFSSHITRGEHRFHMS
UniProt P30291, whole entry: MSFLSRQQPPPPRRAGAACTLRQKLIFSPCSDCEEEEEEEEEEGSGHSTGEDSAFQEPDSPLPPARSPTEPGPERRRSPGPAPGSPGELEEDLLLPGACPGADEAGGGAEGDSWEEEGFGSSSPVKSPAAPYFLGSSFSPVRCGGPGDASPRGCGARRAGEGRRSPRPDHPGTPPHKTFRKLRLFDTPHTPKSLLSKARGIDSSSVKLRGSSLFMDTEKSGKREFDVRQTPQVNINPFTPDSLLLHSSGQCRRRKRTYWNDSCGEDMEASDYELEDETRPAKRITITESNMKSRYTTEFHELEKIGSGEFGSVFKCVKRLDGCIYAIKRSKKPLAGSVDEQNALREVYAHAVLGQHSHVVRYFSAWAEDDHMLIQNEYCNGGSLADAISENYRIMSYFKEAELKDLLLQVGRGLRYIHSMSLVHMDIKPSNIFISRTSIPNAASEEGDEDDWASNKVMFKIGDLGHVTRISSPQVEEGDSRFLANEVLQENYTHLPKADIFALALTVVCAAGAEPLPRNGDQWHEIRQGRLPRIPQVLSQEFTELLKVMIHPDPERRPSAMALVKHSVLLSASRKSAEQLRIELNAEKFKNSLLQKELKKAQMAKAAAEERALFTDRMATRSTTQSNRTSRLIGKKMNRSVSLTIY
UniProt Q9UKS7, whole entry: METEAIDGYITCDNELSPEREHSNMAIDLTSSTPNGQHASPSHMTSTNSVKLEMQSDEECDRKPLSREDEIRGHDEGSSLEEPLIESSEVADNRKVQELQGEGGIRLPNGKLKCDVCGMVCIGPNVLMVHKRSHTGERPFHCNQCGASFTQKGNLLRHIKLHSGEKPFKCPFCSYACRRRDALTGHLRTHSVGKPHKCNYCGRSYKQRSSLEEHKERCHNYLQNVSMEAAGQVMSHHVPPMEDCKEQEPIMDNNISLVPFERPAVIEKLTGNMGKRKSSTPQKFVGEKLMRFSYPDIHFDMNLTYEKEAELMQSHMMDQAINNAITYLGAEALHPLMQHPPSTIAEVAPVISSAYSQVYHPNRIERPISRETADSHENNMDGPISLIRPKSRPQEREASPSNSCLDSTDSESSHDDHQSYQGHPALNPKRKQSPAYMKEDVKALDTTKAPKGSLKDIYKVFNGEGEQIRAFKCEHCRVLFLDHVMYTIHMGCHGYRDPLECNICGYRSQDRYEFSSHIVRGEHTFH
UniProt P15170, whole entry: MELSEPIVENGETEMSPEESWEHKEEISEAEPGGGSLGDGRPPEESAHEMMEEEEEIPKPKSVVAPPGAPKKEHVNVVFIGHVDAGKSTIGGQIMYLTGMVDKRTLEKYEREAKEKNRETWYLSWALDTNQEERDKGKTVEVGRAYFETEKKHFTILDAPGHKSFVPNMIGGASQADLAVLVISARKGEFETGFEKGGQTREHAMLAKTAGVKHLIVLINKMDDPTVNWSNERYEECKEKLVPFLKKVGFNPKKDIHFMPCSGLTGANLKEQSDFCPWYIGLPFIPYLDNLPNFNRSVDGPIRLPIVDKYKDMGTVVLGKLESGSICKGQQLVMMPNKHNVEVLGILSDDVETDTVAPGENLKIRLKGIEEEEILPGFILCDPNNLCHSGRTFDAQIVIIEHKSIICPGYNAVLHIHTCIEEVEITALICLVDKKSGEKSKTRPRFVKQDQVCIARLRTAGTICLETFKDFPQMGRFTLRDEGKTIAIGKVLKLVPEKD
UniProt Q9UKT9, whole entry: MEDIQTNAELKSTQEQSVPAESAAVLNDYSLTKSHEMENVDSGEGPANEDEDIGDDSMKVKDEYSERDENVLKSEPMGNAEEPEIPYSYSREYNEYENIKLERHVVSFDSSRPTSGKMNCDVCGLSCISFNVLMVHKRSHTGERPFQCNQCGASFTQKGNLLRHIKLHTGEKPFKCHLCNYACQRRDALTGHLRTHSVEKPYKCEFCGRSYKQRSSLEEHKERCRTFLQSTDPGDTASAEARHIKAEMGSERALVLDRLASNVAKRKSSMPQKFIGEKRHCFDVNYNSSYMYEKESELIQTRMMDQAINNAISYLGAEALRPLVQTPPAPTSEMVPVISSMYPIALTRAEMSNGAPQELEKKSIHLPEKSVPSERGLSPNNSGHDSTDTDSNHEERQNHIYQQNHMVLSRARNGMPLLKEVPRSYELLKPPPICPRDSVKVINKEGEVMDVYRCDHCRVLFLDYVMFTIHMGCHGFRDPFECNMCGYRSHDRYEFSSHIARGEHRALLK
UniProt Q16531, whole entry partner: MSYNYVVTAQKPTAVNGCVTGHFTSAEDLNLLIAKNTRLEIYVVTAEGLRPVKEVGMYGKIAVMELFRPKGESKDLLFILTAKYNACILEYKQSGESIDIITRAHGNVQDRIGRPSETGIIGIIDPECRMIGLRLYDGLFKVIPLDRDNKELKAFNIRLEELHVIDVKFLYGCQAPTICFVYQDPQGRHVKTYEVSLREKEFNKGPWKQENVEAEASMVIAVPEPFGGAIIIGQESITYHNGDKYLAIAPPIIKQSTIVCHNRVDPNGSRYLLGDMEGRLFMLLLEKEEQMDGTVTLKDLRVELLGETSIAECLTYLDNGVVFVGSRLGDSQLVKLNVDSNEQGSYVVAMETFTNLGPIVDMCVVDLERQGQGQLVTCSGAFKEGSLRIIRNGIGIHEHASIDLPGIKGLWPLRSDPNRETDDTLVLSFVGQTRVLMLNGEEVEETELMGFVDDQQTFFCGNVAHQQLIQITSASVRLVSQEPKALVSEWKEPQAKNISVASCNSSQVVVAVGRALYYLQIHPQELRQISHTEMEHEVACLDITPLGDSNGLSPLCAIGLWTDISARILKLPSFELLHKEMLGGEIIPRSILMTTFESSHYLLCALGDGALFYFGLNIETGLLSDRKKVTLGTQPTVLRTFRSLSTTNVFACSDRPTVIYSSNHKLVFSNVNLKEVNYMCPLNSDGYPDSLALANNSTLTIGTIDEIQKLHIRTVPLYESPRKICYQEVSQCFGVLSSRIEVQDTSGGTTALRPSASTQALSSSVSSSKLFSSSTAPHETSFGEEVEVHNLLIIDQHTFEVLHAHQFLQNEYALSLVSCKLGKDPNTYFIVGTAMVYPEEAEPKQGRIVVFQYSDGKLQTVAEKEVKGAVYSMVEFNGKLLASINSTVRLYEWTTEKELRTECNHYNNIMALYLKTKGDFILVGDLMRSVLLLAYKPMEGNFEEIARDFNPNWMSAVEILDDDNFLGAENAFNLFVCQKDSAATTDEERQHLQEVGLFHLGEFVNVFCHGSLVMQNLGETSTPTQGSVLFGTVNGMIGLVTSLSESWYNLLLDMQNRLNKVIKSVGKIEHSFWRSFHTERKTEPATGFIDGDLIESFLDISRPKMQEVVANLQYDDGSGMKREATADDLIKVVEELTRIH

Key:
[1] = target: CRBN (Homo sapiens, UniProt Q96SW2); test: CRBN binding affinity by HTRF (CEREBLON BINDING kit); conditions: CRBN binding, HTRF; for Inhibition Rate at 0.5 µM (%): compound at 0.5 µM; for Inhibition Rate at 2 µM (%): compound at 2 µM
[2] = tested on: IL-2; test: Inflammatory cytokine release from PBMCs induced by PHA (flow cytometry CBA); conditions: PBMCs, PHA 1 µg/mL, 24 h
[3] = target: CK1α (Homo sapiens, UniProt P48729+Q96SW2); test: Western blot assay of substrate protein degradation in hPBMCs; conditions: 24 hours treatment, compounds at 50 nM and 500 nM (concentration behind the class not stated)
[4] = target: IKZF1 (Homo sapiens, UniProt Q13422+Q96SW2); test: as above; conditions: 24 hours treatment, compounds at 50 nM and 500 nM (concentration behind the class not stated)
[5] = target: WEE1 (Homo sapiens, UniProt P30291+Q96SW2); test: as above; conditions: 24 hours treatment, compounds at 50 nM and 500 nM (concentration behind the class not stated)
[6] = target: IKZF2 (Homo sapiens, UniProt Q96SW2+Q9UKS7); test: as above; conditions: 24 hours treatment, compounds at 50 nM and 500 nM (concentration behind the class not stated)
[7] = target: GSPT1 (Homo sapiens, UniProt P15170+Q96SW2); test: as above; conditions: 24 hours treatment, compounds at 50 nM and 500 nM (concentration behind the class not stated)
[8] = target: IKZF3 (Homo sapiens, UniProt Q96SW2+Q9UKT9); test: as above; conditions: 24 hours treatment, compounds at 50 nM and 500 nM (concentration behind the class not stated)
[9] = tested on: IL-5; test: Inflammatory cytokine release from PBMCs induced by PMA + Ionomycin (flow cytometry CBA); conditions: 24 h
[10] = tested on: GM-CSF; test: as above; conditions: 24 h
[11] = tested on: IL-1α; test: Inflammatory cytokine release from PBMCs induced by PHA (flow cytometry CBA); conditions: PHA 1 µg/mL, 24 h
[12] = tested on: TNF-α; test: as above; conditions: PHA 1 µg/mL, 24 h
[13] = tested on: IL-10; test: as above; conditions: PBMCs, PHA 1 µg/mL, 24 h

Structure (SMILES) | Inhibition Rate at 0.5 µM (%) [1] | Inhibition Rate at 2 µM (%) [1] | Inhibition Rate (%) IL-2 ([2]; 0.1 µM) | Inhibition Rate (%) IL-2 ([2]; 1 µM) | substrate protein remaining % (CK1a) [3] | substrate protein remaining % (IKZF 1) [4] | substrate protein remaining % (WEE1) [5] | substrate protein remaining % (IKZF2) [6] | substrate protein remaining % (GSPT1) [7] | substrate protein remaining % (IKZF3) [8] | Inhibition Rate (%) IL-5 ([9]; 0.1 µM) | Inhibition Rate (%) IL-5 ([9]; 1 µM) | Inhibition Rate (%) GM-CSF ([10]; 0.1 µM) | Inhibition Rate (%) GM-CSF ([10]; 1 µM) | Inhibition Rate (%) IL-1α ([11]; 0.1 µM) | Inhibition Rate (%) IL-1α ([11]; 1 µM) | Inhibition Rate (%) TNF-α ([12]; 0.1 µM) | Inhibition Rate (%) TNF-α ([12]; 1 µM) | Inhibition Rate (%) IL-10 ([13]; 0.1 µM) | Inhibition Rate (%) IL-10 ([13]; 1 µM)
O=C1CCC(N2C(=O)c3cccc(CN4CCC(N5CCN(C(c6ccccc6)c6ccccc6)CC5)C(F)(F)C4)c3C2=O)C(=O)N1 (stereo not shown) |  |  | IV10 (50% < IV 10 ≤ 60%) | IV9 (40% < IV9 ≤ 50%) | B (80%< substrate protein remaining %≤ 100%) | B (80%< substrate protein remaining %≤ 100%) | B (80%< substrate protein remaining %≤ 100%) | A (0% ≤ substrate protein remaining % ≤ 80%) | B (80%< substrate protein remaining %≤ 100%) | B (80%< substrate protein remaining %≤ 100%) |  |  | IV10 (50% < IV 10 ≤ 60%) | IV9 (40% < IV9 ≤ 50%) | IV10 (50% < IV 10 ≤ 60%) | IV1 1 | IV10 (50% < IV 10 ≤ 60%) | IV1 0 |  | 
O=C1CCC(N2Cc3cccc(CN4CCC(N5CCN(C(c6ccccc6)c6ccccc6)CC5)CC4)c3C2=O)C(=O)N1 (stereo not shown) |  |  | IV8 (30% < IV8 ≤ 40%) | IV1 0 |  |  |  |  |  |  |  |  | IV9 (40% < IV9 ≤ 50%) | IV9 (40% < IV9 ≤ 50%) |  |  | IV9 (40% < IV9 ≤ 50%) | IV1 0 | IV8 (30% < IV8 ≤ 40%) | IV9 (40% < IV9 ≤ 50%)
O=C1CCC(N2Cc3cc(CCN4CCC(N5CCN(c6noc7cc(F)ccc67)CC5)CC4)ccc3C2=O)C(=O)N1 (stereo not shown) | a6 (60% < a6 ≤ 70%) | a8 (80% < a8 ≤100%) |  |  |  |  |  |  |  |  |  |  |  |  | IV13 (80% < IV13 ≤ 90%) | IV1 0 | IV12 (70% < IV12 ≤ 80%) | IV1 0 |  | 

Second part, led by results:

Inhibition Rate at 0.5 µM (%) [1] | Inhibition Rate at 2 µM (%) [1] | Structure (SMILES) | Inhibition Rate (%) IL-2 ([2]; 0.1 µM) | Inhibition Rate (%) IL-2 ([2]; 1 µM) | substrate protein remaining % (CK1a) [3] | substrate protein remaining % (IKZF 1) [4] | substrate protein remaining % (WEE1) [5] | substrate protein remaining % (IKZF2) [6] | substrate protein remaining % (GSPT1) [7] | substrate protein remaining % (IKZF3) [8] | Inhibition Rate (%) IL-5 ([9]; 0.1 µM) | Inhibition Rate (%) IL-5 ([9]; 1 µM) | Inhibition Rate (%) GM-CSF ([10]; 0.1 µM) | Inhibition Rate (%) GM-CSF ([10]; 1 µM) | Inhibition Rate (%) IL-1α ([11]; 0.1 µM) | Inhibition Rate (%) IL-1α ([11]; 1 µM) | Inhibition Rate (%) TNF-α ([12]; 0.1 µM) | Inhibition Rate (%) TNF-α ([12]; 1 µM) | Inhibition Rate (%) IL-10 ([13]; 0.1 µM) | Inhibition Rate (%) IL-10 ([13]; 1 µM)
a3 (30% < a3 ≤ 40%) | a6 (60% < a6 ≤ 70%) | CC1(C)CCC(CN2CCN(C3CCN(Cc4ccc5c(c4)C(=O)N(C4CCC(=O)NC4=O)C5)CC3(F)F)CC2)=C(c2ccc(Cl)cc2)C1 (stereo not shown) | IV9 (40% < IV9 ≤ 50%) | IV9 (40% < IV9 ≤ 50%) | A (0% ≤ substrate protein remaining % ≤ 80%) | B (80%< substrate protein remaining %≤ 100%) | B (80%< substrate protein remaining %≤ 100%) | B (80%< substrate protein remaining %≤ 100%) | A (0% ≤ substrate protein remaining % ≤ 80%) | B (80%< substrate protein remaining %≤ 100%) | IV8 (30% < IV8 ≤ 40%) | IV9 (40% < IV9 ≤ 50%) | IV8 (30% < IV8 ≤ 40%) | IV9 (40% < IV9 ≤ 50%) |  |  |  |  |  | 
a5 (53% < a5 ≤ 60%) | a8 (80% < a8 ≤100%) | CC1(C)CCC(C(=O)N2CCN(C3CCN(Cc4cccc5c4CN(C4CCC(=O)NC4=O)C5=O)CC3(F)F)CC2)=C(c2ccc(Cl)cc2)C1 (stereo not shown) | IV9 (40% < IV9 ≤ 50%) | IV8 (30% < IV8 ≤ 40%) | A (0% ≤ substrate protein remaining % ≤ 80%) | B (80%< substrate protein remaining %≤ 100%) | B (80%< substrate protein remaining %≤ 100%) | B (80%< substrate protein remaining %≤ 100%) | A (0% ≤ substrate protein remaining % ≤ 80%) | A (0% ≤ substrate protein remaining % ≤ 80%) |  |  | IV9 (40% < IV9 ≤ 50%) | IV8 (30% < IV8 ≤ 40%) |  |  | IV8 (30% < IV8 ≤ 40%) | IV1 0 | IV7 (20% < IV7 ≤ 30%) | IV9 (40% < IV9 ≤ 50%)
